From PMC11362597

Biological target: GST-fused recombinant ARHGAP25 (human) (UniProt P42331)
Test: affinity purification with mass spectrometry; GST-ARHGAP25 on glutathione agarose beads incubated with neutrophil lysate loaded beforehand with GTPγS or GDPβS (15 mM EDTA, 15 min, RT; stopped with 60 mM MgCl2), 45 min, 4 °C; LFQ values of the two loadings compared

log2ΔFC of LFQ values, GTPγS-loaded against GDPβS-loaded lysate: 0.785
Substance: RAC2 (from UniProt P15153 1-192) (natural protein)
